The text below walks through data of BindingDB's records for PubMed 3010074 (Warner-Lambert/Parke-Davis Pharmaceutical Research, 1986).

Protein sequences, listed by entry. Tags and fused reporters are not part of them.
UniProt P25099, whole entry: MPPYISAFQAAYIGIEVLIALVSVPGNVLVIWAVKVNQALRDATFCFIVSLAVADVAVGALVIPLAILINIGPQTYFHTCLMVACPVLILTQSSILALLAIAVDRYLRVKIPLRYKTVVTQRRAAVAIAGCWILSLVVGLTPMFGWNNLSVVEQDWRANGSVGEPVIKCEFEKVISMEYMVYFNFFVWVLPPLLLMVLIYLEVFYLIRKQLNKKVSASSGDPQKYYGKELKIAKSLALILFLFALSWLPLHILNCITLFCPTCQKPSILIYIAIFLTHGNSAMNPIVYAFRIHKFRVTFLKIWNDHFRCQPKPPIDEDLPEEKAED

In this assay the target is Adenosine receptor A1 (Rattus norvegicus, UniProt P25099).

A word on the Ki: it is the equilibrium dissociation constant of an inhibitor or competing ligand from its target. Compound `COc1ccc(-c2nc3c([nH]2)c(=O)n(C)c(=O)n3C)cc1` [8-(4-methoxyphenyl)-1,3-dimethyl-1H-purine-2,6(3H,7H)-dione] had a Ki of 44.4 nM.

Compound `CCCn1c(=O)c2[nH]c(-c3ccccc3)nc2n(CCC)c1=O` [8-Phenyl-1,3-dipropyl-3,9-dihydro-purine-2,6-dione] had a Ki of 10.2 nM.

With `Cn1c(=O)c2[nH]c(-c3ccc(C(=O)O)cc3)nc2n(C)c1=O` [8-(4-Carboxyphenyl)theophylline], affinity was put at a Ki of 610 nM.
